For orientation: stoichiometry N means a count of units in the complex or per binding partner.

Our source for the stoichiometry N values is PMC5566547.

This test concerns the target T1, Thymine DNA glycosylase (TDG), full-length wild-type human, N-terminal hexahistidine tag (human), Q13569.
T1 chain: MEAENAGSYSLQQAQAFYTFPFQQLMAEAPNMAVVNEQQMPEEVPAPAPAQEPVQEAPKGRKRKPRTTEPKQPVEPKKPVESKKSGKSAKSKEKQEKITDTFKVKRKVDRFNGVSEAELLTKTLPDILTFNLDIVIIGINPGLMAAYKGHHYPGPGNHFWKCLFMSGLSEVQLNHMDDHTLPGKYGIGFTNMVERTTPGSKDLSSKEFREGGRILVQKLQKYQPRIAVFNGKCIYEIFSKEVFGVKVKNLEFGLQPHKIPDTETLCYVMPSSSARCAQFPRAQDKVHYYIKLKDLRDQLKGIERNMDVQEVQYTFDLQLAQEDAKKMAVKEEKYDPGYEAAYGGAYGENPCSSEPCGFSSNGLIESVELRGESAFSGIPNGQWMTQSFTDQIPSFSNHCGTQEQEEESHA
The experiment in a line: SEC; Superdex 200 10/300 GL; separate injections of NEIL1 E3Q or TDG alone (5nmoles in 0.5 ml); SEC buffer 70 mM MOPS pH7.5, 5% glycerol, 1 mM EDTA, 1 mM DTT, 100 mM KCl; column calibrated with mass standards. Particulars: remark: other sources report otherwise. On the technique in general: In gel filtration, larger molecules generally elute earlier.

B1: Thymine DNA glycosylase (TDG), full-length wild-type human, N-terminal hexahistidine tag, Q13569 1-410 (enzyme)
chain: T1 chain
Turning to B1, the stoichiometry N amounted to 2.
